Source: patent US20250353857A1, “COMPOUND ACTIVE AS INHIBITOR OF COLONY STIMULATION FACTOR-1 RECEPTOR (CSF-1 R)” (priority 2022, published 2025)

System: P-MAPK (ERK1/2) in CSF-1 stimulated bone-marrow derived macrophages
Experiment: Effect of CSF1R inhibitors on MAPK signaling in mouse bone-marrow derived macrophages
Format: cell-based
Conditions: fold change relative to PLX3397 (IC50 inhibitor/IC50 PLX3397), P-MAPK/total MAPK, 10 ng/mL CSF-1

Compound	MAPK (fold)
[2H]C([2H])([2H])N(Cc1ccccc1)c1ncnc2[nH]c(-c3ccc(CO)cc3)cc12 [TIA05-046, (4-(4-(Benzyl(methyl-d3)amino)-7H-pyrrolo[2,3-d]pyrimidin-6-yl)phenyl)methanol]	0.6 fold
CN(Cc1ccccc1)c1ncnc2[nH]c(-c3ccc(CO)cc3)cc12 [KUL01-123, (4-(4-(Benzyl(methyl)amino)-7H-pyrrolo[2,3-d]pyrimidin-6-yl)phenyl)methanol]	1.0 fold
